Results: US20190209539A1, “THIOHYDANTOIN ANDROGEN RECEPTOR ANTAGONISTS FOR THE TREATMENT OF CANCER” (Janssen Pharmaceutica NV, priority 2016, published 2019)

Amino acid sequences for entries named in this document (tags omitted).
UniProt P10275, whole entry: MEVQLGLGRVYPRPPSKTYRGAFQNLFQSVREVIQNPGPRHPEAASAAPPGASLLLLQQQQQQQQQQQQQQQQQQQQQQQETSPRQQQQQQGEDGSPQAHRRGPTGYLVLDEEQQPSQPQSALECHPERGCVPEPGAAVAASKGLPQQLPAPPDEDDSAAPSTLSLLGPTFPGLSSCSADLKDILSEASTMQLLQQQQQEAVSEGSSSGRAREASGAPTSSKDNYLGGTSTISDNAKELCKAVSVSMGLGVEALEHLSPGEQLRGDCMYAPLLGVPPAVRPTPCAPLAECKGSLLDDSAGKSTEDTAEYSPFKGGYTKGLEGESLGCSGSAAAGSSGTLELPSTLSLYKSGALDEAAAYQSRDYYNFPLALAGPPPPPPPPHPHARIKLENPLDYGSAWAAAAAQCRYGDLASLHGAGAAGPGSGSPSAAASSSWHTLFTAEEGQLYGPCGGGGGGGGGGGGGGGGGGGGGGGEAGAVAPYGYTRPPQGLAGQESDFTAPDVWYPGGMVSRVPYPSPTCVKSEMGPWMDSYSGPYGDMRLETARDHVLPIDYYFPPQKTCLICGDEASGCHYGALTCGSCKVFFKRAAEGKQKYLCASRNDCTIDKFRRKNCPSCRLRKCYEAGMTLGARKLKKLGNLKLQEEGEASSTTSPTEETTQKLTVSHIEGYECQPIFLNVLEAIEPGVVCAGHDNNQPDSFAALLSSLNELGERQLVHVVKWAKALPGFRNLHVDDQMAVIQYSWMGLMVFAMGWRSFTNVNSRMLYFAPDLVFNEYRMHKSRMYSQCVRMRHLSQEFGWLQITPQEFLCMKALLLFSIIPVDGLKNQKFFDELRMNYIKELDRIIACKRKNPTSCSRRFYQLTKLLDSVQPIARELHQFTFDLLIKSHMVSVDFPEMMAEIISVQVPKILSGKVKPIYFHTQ

Key:
[1] = target: T1, wild-type Androgen Receptor (AR-wt) (Homo sapiens, UniProt P10275); experiment: LNCaP-AR-wt ANT: ARE luciferase reporter assay, antagonist mode; type: cell-based; details: 400 pM R-1881 challenge
[2] = target: T1, wild-type Androgen Receptor (AR-wt); experiment: LNCaP-AR-wt AG: ARE luciferase reporter assay, agonist mode; type: cell-based

CN1CCC(Oc2ccc(N3C(=S)N(c4cnc(C#N)c(C(F)(F)F)c4)C(=O)C3(C)C)cc2)CC1
LNCaP-AR-wt ANT pIC50 [1]: 6.06
LNCaP-AR-wt AG pEC50 ([2]; agonist mode): <4.82
LNCaP-AR-wt AG MAX % Stim ([2]; maximum % stimulation (agonist response), % of 1 μM R-1881 max): 0.3%
